Data taken from PubChem BioAssay AID651567 (National Center for Advancing Translational Sciences (NCATS), 2012).
The entries are a selection whose mix differs from that of the whole data set. Records with an inconclusive call do not appear. The source made the active and inactive calls. The call rests on the fitted dose curve; in most records, active means well fitted inhibition curve with a large enough effect; inconclusive means small, poorly fitted or top-dose-only effect; inactive means no such curve, though single readings can be large or run the other way.

experiment: qHTS Assay to Find Inhibitors of Chronic Active B-Cell Receptor Signaling: Hit Validation in OCI-Ly3 Assay; conditions: OCI-Ly3 IkB-luciferase reporter, Chroma-Glo luminescence, 4 h; at 46.1 µM (top of the series)
Text: Diffuse large B-cell lymphoma (DLBCL) is the most common category of non-Hodgkin lymphoma, with ~20,000 new cases per year in the United States. DLBCL should be regarded as a collection of different neoplasms. Microarray gene expression analysis has defined two principal types of DLBCL, named for their similarity to normal B cell stages or activation states: a germinal center B-cell (GCB) type, and an activated B-cell (ABC) type. In ABC-DLBCL, a constitutive high-level activity of the NF-kappaB family of transcription factors has been observed (1) and NF-kappaB target genes are more highly expressed in ABC primary tumors than in GCB tumors. […]
Cells were seeded in 1536-well plates at 5000 cells/3ul in IMDM medium containing 0.5% FBS, w/o phenol red, L-glutamine, 25 mM HEPES, 3 mg/ml sodium bicarbonate. […] The plates were measured on a ViewLux plate reader for green luminescence (540/20 nm filter) and red luminescence (618/8 nm filter). The green and red luminescent signals were corrected for red and green luminescence filter overlap using previously determined filter calibration constants (determined using the procedure outlined in the Promega Technical Manual). The %Activity was determined from the ratio of corrected green/red luminescent values. […] The concentration-effect curves were then classified based on curve quality (r2), response magnitude and degree of measured activity. […]
On the % scale 0 is the no-effect control and ±100 the full control effect.

Compound	activity change, negative = inhibition
COc1ccc(C2=NCC(CBr)S2)cc1 (stereo unspecified)	inactive: 0.165%
